For this test, the target named is endogenous TEAD1 (human (endogenous in MCF10AT, MCF10A)) (UniProt P28347). The test can be described thus: proximity ligation.

Protein sequences, listed by entry. Tags and fused reporters are not part of them.
UniProt P28347, whole entry: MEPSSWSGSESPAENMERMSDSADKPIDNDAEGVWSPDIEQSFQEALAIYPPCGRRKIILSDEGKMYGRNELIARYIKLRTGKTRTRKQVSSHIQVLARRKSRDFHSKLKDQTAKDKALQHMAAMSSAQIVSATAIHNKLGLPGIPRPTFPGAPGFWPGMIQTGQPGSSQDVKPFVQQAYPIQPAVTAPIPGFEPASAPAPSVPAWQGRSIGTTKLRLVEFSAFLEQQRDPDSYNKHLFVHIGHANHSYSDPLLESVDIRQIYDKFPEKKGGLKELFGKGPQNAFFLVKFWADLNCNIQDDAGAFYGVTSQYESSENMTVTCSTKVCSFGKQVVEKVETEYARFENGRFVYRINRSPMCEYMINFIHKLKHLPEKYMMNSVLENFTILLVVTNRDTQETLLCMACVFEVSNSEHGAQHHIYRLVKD

NLS-YAP (natural protein) yielded a % PLA-positive cells (C3, ARID1A depleted) of 43.4%; a % PLA-positive cells (High mechanics) of 46.3%; a % PLA-positive cells (Lat.A, ARID1A depleted) of 48.5%; a % PLA-positive cells (anti-integrin antibodies, ARID1A depleted) of 67%. The substance also yielded a % PLA-positive cells (small adhesive area, ARID1A depleted) of 44% and a % PLA-positive cells (soft ECM, ARID1A depleted) of 49.8%.

Source of the values: PMC7612964.
